ChEMBL document CHEMBL1154626, “Novel, potent, and selective quinoxaline-based 5-HT(3) receptor ligands. 1. Further structure-activity relationships and pharmacological characterization” (J Med Chem, 2009)

Chains of the proteins cited; added tags and fusions are not shown.
UniProt O70212, whole entry: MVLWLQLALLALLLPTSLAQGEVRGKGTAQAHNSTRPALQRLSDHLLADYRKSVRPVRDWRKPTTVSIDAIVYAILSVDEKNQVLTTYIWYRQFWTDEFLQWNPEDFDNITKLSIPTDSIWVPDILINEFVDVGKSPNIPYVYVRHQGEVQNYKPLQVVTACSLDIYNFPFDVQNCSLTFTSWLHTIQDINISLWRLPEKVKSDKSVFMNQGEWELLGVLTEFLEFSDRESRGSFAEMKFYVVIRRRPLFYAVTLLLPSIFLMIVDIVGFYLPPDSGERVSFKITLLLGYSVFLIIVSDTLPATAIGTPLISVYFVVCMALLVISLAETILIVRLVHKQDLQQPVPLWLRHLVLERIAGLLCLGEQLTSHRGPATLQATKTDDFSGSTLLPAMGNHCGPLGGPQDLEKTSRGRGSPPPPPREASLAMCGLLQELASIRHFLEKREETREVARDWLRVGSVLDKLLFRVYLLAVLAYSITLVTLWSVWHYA

Target: 5-hydroxytryptamine receptor 3A (Cavia porcellus) (UniProt O70212)
Settings: Cardiac atrium

pA2: inactive
Structure (SMILES): c1ccc(CN2CCN(c3nc4ncccc4n4cccc34)CC2)cc1

Activity calls are given as the source filed them. No cut-off for these calls is given here.
